Test results published in patent publication US11584714B2 (dated 2023).
Where a name gives a salt, the structure may show the parent alone.

The chains behind the UniProt entries cited, without tags or fusion partners. Residues count along the entry.
UniProt O00187, 445-686: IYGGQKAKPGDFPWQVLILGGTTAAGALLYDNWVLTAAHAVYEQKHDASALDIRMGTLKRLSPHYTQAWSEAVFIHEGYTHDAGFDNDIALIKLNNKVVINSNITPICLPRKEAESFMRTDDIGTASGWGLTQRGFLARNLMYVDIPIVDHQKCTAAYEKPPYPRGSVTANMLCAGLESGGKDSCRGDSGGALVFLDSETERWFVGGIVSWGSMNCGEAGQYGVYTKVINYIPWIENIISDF

Target: MASP-2 (CCP1-CCP2-SP) (Homo sapiens (Human), UniProt O00187)
Format: biochemical
Details: selectivity for MASP-2 inhibition versus thrombin

Cc1nc(N)ccc1CNC(=O)C(C)NC(=O)[C@H]1C[C@H](c2cccc(-c3ccccc3)c2)CN1 (stereo in doubt) [compound 1360, (2R,4R)-4-([1,1′-Biphenyl]-3-yl)-N—((R)-1-(((6-amino-2-methylpyridin-3-yl)methyl)amino)-1-oxopropan-2-yl)pyrrolidine-2-carboxamide Di-trifluoroacetate salt]
MASP-2 vs. thrombin selectivity: **** (≥100-fold)
